# According to PubChem BioAssay AID651640 (Broad Institute, 2012):
# Only a part is listed here, and it is no random draw. Inconclusive results are not listed. The source made the active and inactive calls. Cut-off read from the data, not from the text of the source: active = CPE inhibition above about 20% (passing the limit was not always enough); inconclusive = no clear call, values can overlap the other calls; tested in BHK-21 cells.
# Assay: protection of cells from dengue 2 killing – plate reader, single concentration, primary screen (AID 651640);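 note: 0% = median of neutral control wells and 100% = median of positive control wells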
# Conditions: DENV2-infected cells, cytopathic effect rescue, at 9.99 µM, stronger effect = higher value
row,Structure (SMILES),CPE inhibition
1,CCOP(=O)(Nc1cccc2ccccc12)OCC,inactive: 2.22%
2,Nc1cccc2c([As](=O)(O)O)cccc12,inactive: 1.79%
3,Cc1ccc(NCCc2c([N+](=O)[O-])cc([N+](=O)[O-])cc2[N+](=O)[O-])cc1,inactive: 1.56%
4,CCCOP(=S)(Nc1nc(N)cc(=O)[nH]1)OCCC,inactive: 9.05%
5,O=[As](O)(c1cccc(O)c1)c1cccc(O)c1,inactive: -5.31%
6,O=C(OC1CN2CCC1CC2)c1ccc(Cl)cc1 (configuration not stated),inactive: 6.11%
7,O=[As](O)(O)c1cccnc1,inactive: -0.26%
8,COc1cc(C(=O)NCC2(N3CCOCC3)CCCCC2)cc(Cl)c1OC(C)C,inactive: 3.64%
9,CS(=O)(=O)c1ccc(Cl)c(NC(=O)COC(=O)C(O)(c2ccccc2)c2ccccc2)c1,inactive: -0.882%
10,N#CCCN(C(=O)COC(=O)C(O)(c1ccccc1)c1ccccc1)c1ccc(F)cc1,inactive: 11.3%
11,CN(C(=O)Cc1ccccc1)[C@@H]1CC[C@]2(CCCO2)C[C@H]1N1CCCC1,inactive: 10.8%
12,CCOP1(=S)c2c(C)nn(CCC#N)c2N=C(c2ccc(F)cc2)N1C (configuration not stated),inactive: -4.98%
13,CN(C)C(=O)c1cc([N+](=O)[O-])cc2c1-c1c(cc([N+](=O)[O-])cc1[N+](=O)[O-])C2=O,inactive: -4.13%
14,CN(C(=O)Cc1ccc(Cl)c(Cl)c1)[C@H]1CC[C@@]2(CCCO2)C[C@@H]1N1CCCC1,inactive: 10.3%
15,NC(=O)Nc1ccc([As](=O)(O)O)cc1,inactive: -4.51%
16,O=C(O)COc1ccc([As](=O)(O)O)cc1[N+](=O)[O-],inactive: 1.23%
17,Nc1ccccc1[As](=O)(O)c1ccccc1,inactive: -0.428%
18,O=P(Nc1nccs1)(Oc1ccccc1)Oc1ccccc1,inactive: 6.75%
19,Nc1cccc([As](=O)(O)c2ccccc2)c1,inactive: 7.09%
20,O=[As](O)(c1cccs1)c1cccs1,inactive: -3.65%
21,NS(=O)(=O)c1cccc(NC(=O)COC(=O)C(O)(c2ccccc2)c2ccccc2)c1,inactive: 1.66%

row,Structure (SMILES),CPE inhibition
1,CN(C)C1(CNC(=O)c2ccc(S(C)(=O)=O)cc2)CCCCC1,inactive: -3.07%
2,O=C(/C=C/c1ccccc1)OC1CN2CCC1CC2 (configuration not stated),active: 31.9%
3,CCCC1OP(=O)(Nc2ccccc2)OCC1CC (configuration not stated),inactive: -4.38%
4,Cc1ccc(C(=O)OC2CN3CCC2CC3)cc1 (configuration not stated),inactive: -1.87%
5,CC1CCC(C(C)C)C(OP(=O)(Nc2ccccn2)c2ccccc2)C1 (configuration not stated),inactive: -13%
6,CN(C(=O)Cc1ccc(Cl)c(Cl)c1)[C@@H]1CCCC[C@H]1N1CCCC1,inactive: 16.3%
7,CC(C)/C=N\N=C(\N)N[N+](=O)[O-],inactive: -2.11%
8,O=P1(N(CCCl)CCCl)NCCC(C(F)(F)F)O1 (configuration not stated),inactive: 2.24%
9,CC(C)(C)C(=O)NC(Sc1ncccn1)C(Cl)(Cl)Cl (configuration not stated),inactive: -4.49%
10,CCC1=CC2Cc3nc4ccc(Cl)cc4c(N)c3C(C1)C2 (configuration not stated),inactive: -22.8%
11,CCOP(=O)(NC(=NC(C)c1ccccc1)NC(C)c1ccccc1)OCC (configuration not stated),inactive: -7.82%
12,CCOP(=O)(Nc1ccc(C)cn1)OCC,inactive: 10.2%
13,CN(CCCl)Cc1cc(Cl)c(NC2=NCCN2)c(Cl)c1,inactive: 11.6%
14,O=C(OC1CN2CCC1CC2)c1cccc([N+](=O)[O-])c1 (configuration not stated),inactive: 4.13%
15,CCOC(=O)c1ccc(NC(=O)C(C)(CCl)SC)cc1 (configuration not stated),inactive: -1.52%
16,O=C(O)C(=O)c1ccc(N(CCCl)CCCl)cc1,inactive: 2.03%
17,O=C(Nc1ccncc1[N+](=O)[O-])c1ccc([N+](=O)[O-])cc1[N+](=O)[O-],inactive: -9.22%
18,COP1(=S)c2c(C)nn(CCC#N)c2N=C(c2ccc(F)cc2)N1C (configuration not stated),inactive: -3.42%
19,COC(=O)C1(C)COP(=O)(N2CCCC2)OC1 (configuration not stated),inactive: -4.48%
20,O=P(Nc1ccccn1)(c1cccc2ccccc12)c1cccc2ccccc12,inactive: 13.4%
21,O=[N+]([O-])c1ccc(Nc2ccc(Oc3ccc([N+](=O)[O-])cc3[N+](=O)[O-])cc2)c([N+](=O)[O-])c1,inactive: -5.64%

row,Structure (SMILES),CPE inhibition
1,CCOC(=O)Nc1cccc([As](=O)(O)O)c1,inactive: -2.66%
2,COP(=O)(OC)N1CC1c1ccccc1 (configuration not stated),inactive: -5.46%
3,CCCCOc1ccc(C(=O)NCC2(N3CCCCC3)CCCCC2)cc1OC,inactive: 4.05%
4,O=C(O)C(O)c1ccc(N(CCCl)CCCl)cc1 (configuration not stated),inactive: -12.6%
5,CC1CCNP(=O)(N(CCCl)CCCl)O1 (configuration not stated),inactive: -2.12%
6,CC(C)NC(=O)NP(=O)(Oc1ccccc1)Oc1ccccc1,inactive: -3.05%
7,O=C(OC1CN2CCC1CC2)c1cccc2[nH]cnc12 (configuration not stated),inactive: 6.8%
8,COC(=O)C1(C)COP(=O)(N2CCCCCC2)OC1 (configuration not stated),inactive: -5.06%
9,CC(C)c1ccc(OP(=O)(Nc2ccccn2)Oc2ccccc2F)cc1 (configuration not stated),inactive: -4.91%
10,Cc1ccc(OP(=O)(Nc2ccc([N+](=O)[O-])cn2)Oc2ccc(C)cc2)cc1,inactive: -4.01%
11,[N-]=[N+]=NC1CCCCC1NC(=O)c1cc([N+](=O)[O-])cc([N+](=O)[O-])c1 (configuration not stated),inactive: 3.88%
12,Cc1ccc2nc3c(c(C)c2c1)CC(C(Cl)Cl)S3 (configuration not stated),inactive: 1.43%
13,O=[As](O)(c1ccc(O)cc1)c1ccccc1O,inactive: 1.66%
14,C[As](=O)(O)c1cccc(C(=O)O)c1,inactive: -0.548%
15,O=[N+]([O-])c1ccc(-c2cc([N+](=O)[O-])c(O)c([N+](=O)[O-])c2)cc1,inactive: -2.34%
16,O=[N+]([O-])c1cc(Oc2ccc([N+](=O)[O-])cc2C(F)(F)F)cc([N+](=O)[O-])c1,inactive: -3.91%
17,COc1ccc(N/C(=N/P(=O)(N2CCOCC2)N2CCOCC2)N2CCOCC2)cc1,inactive: -2.08%
18,O=P1(N(CCCl)CCCl)Nc2ccccc2N1,inactive: 1.88%
19,COc1ccc(CN2/C(=N\P(=O)(Oc3ccccc3)Oc3ccccc3)Cc3ccccc3C2C2CC2)cc1 (configuration not stated),inactive: 1.3%
20,COc1ccc2nc(NP(=O)(c3ccccc3)c3ccccc3)sc2c1,inactive: -1.16%
